# High-throughput results deposited in PubChem BioAssay by National Center for Advancing Translational Sciences (NCATS).
# Vif-A3G inh = inhibitors of Vif-APOBEC3G interaction | 0.076% of 410,000 active | Potency, µM (series often up to 46.1 µM), usual class: inhibitors | AID 602310 | Q9HC16 | HeLa A3G-eYFP + Vif (tagged APOBEC3G with the HIV-1 protein that degrades it), YFP fluorescence, overnight; further: nearly all actives have a fitted effect of over 60% in size
#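 HeLa cells stably expressing Vif and C-terminally eYFP-tagged A3G, seeded overnight at 37 deg C, then exposed to compound by pintool overnight at 37 deg C. Rise in yellow fluorescence (Ex 488/Em 500-530, Acumen) marks blocked Vif-driven A3G degradation.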
# Epigenetic reg = epigenetic control regulation, reporter derepression; murine LDR cells, GFP reporter derepression, 30 h; Potency, µM (doses to about 53.9 µM), usual class: activators; 0.2% of 280,000 active; AID 1865; further: nearly all actives have a fitted effect of over 60% in size
#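 Murine LDR cells carrying a silenced, genomically integrated CMV-driven GFP reporter were exposed to compound for 30 hours at 37 C. After PBS washes, GFP-positive cells (20–120 um objects) were counted by laser-scanning microplate cytometry.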
# Rango complex inh = Rango-importin beta binding inhibition | Rango CFP/YFP FRET sensor + importin beta, 45 min | AID 540263 | 0.031% of 340,000 active | Potency, µM (titrated, usually from 92.2 µM); calls by dose curve; further: nearly all actives have a fitted effect of over 15% in size
#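 Inhibition scored from the CFP 486 nm/YFP 530 nm FRET ratio 45 min after adding 0.125 microM importin beta to 50 nM Rango biosensor preincubated 5 min with compound (room temperature, PBS with DTT, Tween-20, BSA). No-importin wells as positive control.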
# Vif-APOBEC3F blk = blocks the Vif interaction with APOBEC3F; HeLa A3F-eYFP + Vif (tagged APOBEC3F with the HIV-1 protein that degrades it), YFP fluorescence increase; Potency, µM (doses to about 46.1 µM); 0.2% of 390,000 active; AID 602313; further: nearly all actives have a fitted effect of over 65% in size
#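 HeLa cells stably expressing A3F-eYFP plus Vif, plated and incubated overnight at 37 deg C, then exposed to compounds overnight at 37 deg C. Blocked degradation read as raised yellow fluorescence (Ex 488/Em 500-530).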
# Rango release inh = prevents RanGTP from dissociating the Rango-importin beta complex | O95149+P62826 | Biochemical FRET Rango-importin beta, RanGTP-induced dissociation | Potency, µM (top dose mostly 46.1 µM) | 0.071% of 340,000 active | AID 540253; calls by dose curve; further: nearly all actives have a fitted effect of over 45% in size
#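 Rango FRET biosensor (snurportin-1 IBB flanked by N-terminal EYFP and C-terminal CFP10) at 0.1 uM, with 0.25 uM importin beta in PBS, 1mM DTT, 0.02% Tween-20, 0.1% BSA. 0.6 uM Ran, 2mM GTP and 0.2 uM RCC1 were then added for 45 min at room temperature. Inhibition read as loss of FRET rise.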
# Hits are given with their value; . = inactive; ? = inconclusive; / = not tested or not shown. Hits are enriched below; roughly 0.42% of the tested compounds scored in any of these assays. Unless noted, the call rests on the fitted dose curve; in most records, active means well fitted curve in the direction sought with a large enough effect; inconclusive means small, poorly fitted or top-dose-only effect, or another doubt; inactive means no such curve, though single readings can be large; an effect the other way counts as inactive or inconclusive.
SMILES,Vif-A3G inh,Epigenetic reg,Rango complex inh,Vif-APOBEC3F blk,Rango release inh
COc1cc2c(NC3CCN(C(C)C)CC3)nc(N3CCCN(C)CC3)nc2cc1OCCOCCN1CCCC1,.,/,/,/,/
CCCCN(CCCNC(=O)c1cc(Nc2cccc(SC)c2)nc2ccccc12)Cc1ccccc1,?,35µM,/,.,/
CSc1cccc(Nc2cc(C(=O)NCCc3ccc(Cl)cc3)c3ccccc3n2)c1,.,.,/,.,/
COc1ccc(CNC(=O)c2nn(-c3ccccc3C)nc2CO)cc1,.,.,/,.,/
CC1Sc2ccc(C(=O)NCc3ccccn3)cc2NC1=O (stereo not given),.,/,.,13µM,.
Cc1cc(/C=C2\NC(=S)N(C)C2=O)ccc1N1CCCC1,6.3µM,?,.,?,.
CCN1C(=O)/C(=C/c2ccc(N3CCCC3)cc2)NC1=S,8.9µM,?,?,25µM,?
CCCN1C(=O)/C(=C/c2ccc(N3CCCC3)c(C)c2)NC1=S,?,1µM,?,?,?
CCn1nc(-c2ccccc2C)nc2c(=O)n(C)c(=O)nc1-2,.,/,/,/,/
CCCCCCC[n+]1ccc(C)c2ccccc21,.,/,/,/,/
CCCN(CCC)CCCNC(=O)c1sc2nc3n(c(=O)c2c1C)CCC3,.,.,/,.,/
CC(=O)OCC(=O)[C@@]1(O)CCC2C3C[C@H](C)C4=CC(=O)C=CC4(C)C3C(O)CC21C (stereo not given in full),/,.,/,/,/
CCOC(=O)Nc1cc2c(c(N)n1)N=C(c1ccccc1)CN2,?,/,?,22µM,?
CCOC(=O)Nc1sc(C)nc1-c1ccccc1,.,.,.,.,.
COCCCNC(=O)/C(C#N)=C/c1c(N2CCN(C)CC2)nc2c(C)cccn2c1=O,.,/,?,.,?
COCCCNC(=O)/C(C#N)=C/c1c(N2CCN(c3ccc(OC)cc3)CC2)nc2c(C)cccn2c1=O,.,/,?,.,4.6µM
O=C(N/N=C/C=C/c1ccc([N+](=O)[O-])cc1)c1cccs1,.,.,26µM,.,.
O=C(N/N=C/C=C\c1ccccc1[N+](=O)[O-])c1cccs1,.,.,.,.,.
O=C(O)CCc1ccc(-c2cccs2)n1CC1CCCO1 (stereo not given),.,.,?,.,5.2µM
O=C(O)CCc1ccc(-c2ccc(F)cc2)n1CC1CCCO1 (stereo not given),.,.,.,.,.
Cc1c2ccccc2nc2c(F)c(NCCO)c(F)c(F)c12,?,.,?,?,?
Cc1c2ccccc2nc2c(F)c(NC(C)C)c(F)c(F)c12,?,?,?,13µM,?
CCSC(=O)N1CCN(/[N+]([O-])=N/Oc2ccc([N+](=O)[O-])cc2[N+](=O)[O-])CC1,.,/,/,/,/
CC(C)c1ccc(C2C(C#N)=C(N)N3C(=C2C#N)Sc2ccccc23)cc1 (stereo not given),/,20µM,/,/,/
CC(C)c1ccc(C2CC(=O)N3CN(C)CSC3=C2C#N)cc1 (stereo not given),.,.,?,.,.
SMILES,Vif-A3G inh,Epigenetic reg,Rango complex inh,Vif-APOBEC3F blk,Rango release inh
COc1cc2c(C(=O)N(C)c3cc(Cl)ccc3OC)cn(CC(C)C)c(=O)c2cc1OC,.,.,/,.,/
Cc1ccc2c(c1)N=C(c1ccc(F)cc1)CO2,.,.,.,.,?
O=[N+]([O-])c1ccc(C2=Nc3cc(Cl)ccc3OC2)cc1,.,.,?,25µM,.
COc1ccccc1N1CCN(c2ncnc3c2cnn3-c2cc(Cl)ccc2C)CC1,.,.,/,.,/
CN(C)c1ccc(/C=C/c2ccc3ccccc3n2)cc1,.,?,?,?,?
C=C(/C=C/c1ccc(N(C)C)cc1)c1nc2ccccc2s1,11µM,/,/,/,/
CC(=NO)c1ccc2c(c1)Cc1cc([N+](=O)[O-])ccc1-2,.,/,.,.,.
CC(O)CN(CC(C)O)c1ccc2c(c1)Cc1cc([N+](=O)[O-])ccc1-2 (stereo not given),?,/,18µM,?,?
COc1ccc(N/C=C\C(=O)c2ccc(C)cc2)cc1OC,.,.,?,?,?
COc1ccc(N/C=C\C(=O)c2ccc(Br)cc2)cc1OC,.,?,?,32µM,?
CN(C)c1ccc(/C=C2/C[N+](C)(C)C/C(=C/c3ccc(N(C)C)cc3)C2=O)cc1,?,/,?,10µM,16µM
CC(C)/C=C1\CC/C(=C\c2ccc(N(C)C)cc2)C1=O,.,.,?,?,?
Cn1nnc2c(NCc3ccc(Cl)cc3)ncnc21,.,.,/,.,/
COCCCNC(=S)N/N=C/c1ccc(OC)cc1,.,.,.,22µM,.
CCCCCCCCCC[n+]1cccc2cc(Br)ccc21,.,/,/,/,/
CCCCCCCCCC[n+]1ccc(/C=C/c2c[nH]c3ccccc23)cc1,.,/,/,/,/
O=S(=O)(c1ccc2c(c1)CCCC2)N1CCN(c2nc(-c3ccccc3)nc3ccccc23)CC1,.,/,/,/,/
CC(=O)c1cc(NC(=O)c2ccc(C)cc2)c(=O)oc1/C=C/N(C)C,13µM,.,?,13µM,?
CN1C2C=C3C(C#N)=C(N)C(C#N)(C#N)[C@H](c4c(F)cccc4F)[C@H]3C1CC2 (stereo not given in full),.,.,?,.,?
N#CC1=C(N)C(C#N)(C#N)[C@H](c2c(F)cccc2F)[C@H]2CC3(CC=C12)OCCO3,13µM,?,.,22µM,.
O=C(NCc1nc2ncc(Br)cc2[nH]1)c1ccccc1,.,.,?,.,.
O=c1[nH]c2cc(Br)cnc2nc1/C=C(\O)c1ccc(F)cc1,.,?,?,10µM,?
CCSC1=N/C(=C\C=C2/Oc3ccccc3N2CC)C(=O)S1,7.1µM,11µM,.,6.3µM,.
COc1ccc(-n2c(/C=C/c3c(C)[nH]c4ccccc34)nc3ccccc3c2=O)cc1,.,10µM,/,.,/
Cc1[nH]c2ccccc2c1/C=C/c1nc2ccccc2c(=O)n1-c1cccc([N+](=O)[O-])c1,.,.,?,?,.
SMILES,Vif-A3G inh,Epigenetic reg,Rango complex inh,Vif-APOBEC3F blk,Rango release inh
O=C(NC(=S)Nc1c(Cl)cc(Cl)cc1Cl)c1ccccc1,.,/,/,4.5µM,/
CCc1ccccc1NC(=O)c1nnn(Cc2ccc(Cl)cc2)c1N,.,.,/,.,/
O=[N+]([O-])c1ccc(N/N=C/c2c[nH]c3ccccc23)c(S(=O)(=O)Nc2ccc(Cl)cc2)c1,?,?,?,25µM,.
Cc1ccc(NC(=O)CN2C(=O)N/C(=C/c3cc(C)n(-c4ccc(C(=O)O)cc4)c3C)C2=O)cc1,.,.,?,.,?
CCn1c(C)cc(/C=C2\NC(=O)N(CC(=O)Nc3ccc(F)cc3)C2=O)c1C,.,25µM,.,.,.
CSc1nsc(/C=C/Nc2ccc(O)cc2C)c1C#N,?,?,?,10µM,?
CSc1nsc(/C=C/Nc2ccc(F)cc2)c1C#N,?,10µM,?,22µM,?
CN(C)c1ccc(NC(=O)CSC2=Nc3ccccc3C3=NC(CCC(=O)NCc4cccs4)C(=O)N23)cc1 (stereo not given),.,.,/,.,/
